Laboratory results reported in paper PMC7374170, “TRIB3-EGFR interaction promotes lung cancer progression and defines a therapeutic target” (Nature Communications, 2020).

How the values were obtained:
[1] = tested on: EGFR signaling proteins in xenograft tumors; experiment: Immunoblot / CO-IP of xenograft tumor tissue; assay type: in vivo; conditions: NCI-H1975 inoculated mice, long-term treatment
NCI-H1975 cells = experiment: Immunoblot of EGFR, HER2 and receptor tyrosine kinases, NCI-H1975 cells; assay type: cell-based, human; conditions: short- or long-term treatment

COc1cc2ncnc(Nc3ccc(F)c(Cl)c3)c2cc1OCCCN1CCOCC1 [gefitinib]
expression / phosphorylation of STAT3, STAT5 (and ERK1/2) in xenograft tumor tissue [1]: markedly induced phosphorylation
EGFR phosphorylation and expression in H1975 (NCI-H1975 cells): had no effect on EGFR phosphorylation
